Results as given in US7176281B2 (priority 2003, dated 2007).

Target: T1, Group IIA purified human synovial sPLA2 (Homo sapiens, UniProt P14555)
T1 construct: purchased Cayman, USA
T1 sequence (P14555 21-144): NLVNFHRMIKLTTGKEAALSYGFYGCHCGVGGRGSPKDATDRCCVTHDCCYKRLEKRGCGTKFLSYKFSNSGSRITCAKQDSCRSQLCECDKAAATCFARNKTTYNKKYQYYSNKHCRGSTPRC
Experiment: In vitro inhibition of purified human synovial sPLA2, 3H-labelled E. coli membranes
Type: biochemical
Conditions: purified human synovial sPLA2 (Cayman)

Compound: CCc1c(C(=O)C(N)=O)c2c(OCC(=O)O)cccc2n1Cc1ccccc1 [LY315920, reference compound]
- IC50: 2290 nM
